Patent US20150258192A1, “COMPOSITIONS AND METHODS FOR PREVENTING OR TREATING CHRONIC LUNG ALLOGRAFT DYSFUNCTION (CLAD) AND IDIOPATHIC PULMONARY FIBROSIS (IPF)” (priority 2014, published 2015)

Protein sequences, listed by entry. Tags and fused reporters are not part of them. Lines headed by an entry give the natural chain unless they say otherwise; changes in a name come on top. Residues count along the entry.
UniProt Q15418, whole entry: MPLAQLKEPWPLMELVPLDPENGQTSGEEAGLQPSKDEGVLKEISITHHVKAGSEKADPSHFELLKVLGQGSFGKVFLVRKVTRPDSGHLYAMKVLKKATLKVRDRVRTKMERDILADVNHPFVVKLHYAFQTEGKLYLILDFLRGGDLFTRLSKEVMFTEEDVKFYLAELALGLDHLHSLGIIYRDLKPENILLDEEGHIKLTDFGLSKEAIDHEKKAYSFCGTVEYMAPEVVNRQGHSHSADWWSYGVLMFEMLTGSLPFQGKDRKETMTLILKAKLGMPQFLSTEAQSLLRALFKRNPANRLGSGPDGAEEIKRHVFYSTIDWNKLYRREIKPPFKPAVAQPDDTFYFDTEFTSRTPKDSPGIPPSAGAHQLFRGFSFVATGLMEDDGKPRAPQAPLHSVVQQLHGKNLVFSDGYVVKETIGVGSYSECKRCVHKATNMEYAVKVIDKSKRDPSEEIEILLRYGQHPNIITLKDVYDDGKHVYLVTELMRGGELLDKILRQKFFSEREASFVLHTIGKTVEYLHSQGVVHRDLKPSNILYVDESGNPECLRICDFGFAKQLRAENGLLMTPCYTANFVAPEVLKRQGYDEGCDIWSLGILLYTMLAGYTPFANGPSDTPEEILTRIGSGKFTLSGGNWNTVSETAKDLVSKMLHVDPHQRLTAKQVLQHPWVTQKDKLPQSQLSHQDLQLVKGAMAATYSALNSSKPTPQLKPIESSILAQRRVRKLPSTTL
UniProt Q86Z02: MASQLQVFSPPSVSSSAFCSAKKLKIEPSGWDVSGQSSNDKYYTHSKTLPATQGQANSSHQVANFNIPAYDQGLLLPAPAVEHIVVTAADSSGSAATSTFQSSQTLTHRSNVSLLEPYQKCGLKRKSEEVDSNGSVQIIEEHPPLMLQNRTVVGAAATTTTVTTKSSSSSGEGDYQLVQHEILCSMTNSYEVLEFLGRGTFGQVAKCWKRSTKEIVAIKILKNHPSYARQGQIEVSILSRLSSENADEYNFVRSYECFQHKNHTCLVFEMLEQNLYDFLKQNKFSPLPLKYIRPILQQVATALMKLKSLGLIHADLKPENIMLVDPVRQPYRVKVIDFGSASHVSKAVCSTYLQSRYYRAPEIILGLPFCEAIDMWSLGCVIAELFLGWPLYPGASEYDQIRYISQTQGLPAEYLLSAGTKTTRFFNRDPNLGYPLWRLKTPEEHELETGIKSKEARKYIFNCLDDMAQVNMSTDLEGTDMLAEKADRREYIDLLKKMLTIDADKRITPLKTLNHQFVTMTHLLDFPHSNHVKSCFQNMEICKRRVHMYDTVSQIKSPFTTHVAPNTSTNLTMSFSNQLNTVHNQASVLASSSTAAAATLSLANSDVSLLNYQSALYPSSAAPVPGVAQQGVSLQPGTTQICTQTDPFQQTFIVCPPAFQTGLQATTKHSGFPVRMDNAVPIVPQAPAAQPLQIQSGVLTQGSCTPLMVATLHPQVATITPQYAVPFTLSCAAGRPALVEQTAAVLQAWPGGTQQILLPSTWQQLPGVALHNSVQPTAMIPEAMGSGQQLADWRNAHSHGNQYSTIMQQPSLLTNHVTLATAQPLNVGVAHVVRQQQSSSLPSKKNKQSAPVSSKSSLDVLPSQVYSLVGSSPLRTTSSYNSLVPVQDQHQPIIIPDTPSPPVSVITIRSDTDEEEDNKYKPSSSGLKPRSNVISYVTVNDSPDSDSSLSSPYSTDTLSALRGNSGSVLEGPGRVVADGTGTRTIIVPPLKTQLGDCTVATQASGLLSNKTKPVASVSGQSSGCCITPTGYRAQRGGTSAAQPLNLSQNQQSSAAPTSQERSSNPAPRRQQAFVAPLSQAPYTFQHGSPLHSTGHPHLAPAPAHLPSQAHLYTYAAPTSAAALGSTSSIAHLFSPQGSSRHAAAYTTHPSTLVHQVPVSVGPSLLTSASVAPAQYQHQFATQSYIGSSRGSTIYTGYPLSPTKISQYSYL
UniProt Q04759: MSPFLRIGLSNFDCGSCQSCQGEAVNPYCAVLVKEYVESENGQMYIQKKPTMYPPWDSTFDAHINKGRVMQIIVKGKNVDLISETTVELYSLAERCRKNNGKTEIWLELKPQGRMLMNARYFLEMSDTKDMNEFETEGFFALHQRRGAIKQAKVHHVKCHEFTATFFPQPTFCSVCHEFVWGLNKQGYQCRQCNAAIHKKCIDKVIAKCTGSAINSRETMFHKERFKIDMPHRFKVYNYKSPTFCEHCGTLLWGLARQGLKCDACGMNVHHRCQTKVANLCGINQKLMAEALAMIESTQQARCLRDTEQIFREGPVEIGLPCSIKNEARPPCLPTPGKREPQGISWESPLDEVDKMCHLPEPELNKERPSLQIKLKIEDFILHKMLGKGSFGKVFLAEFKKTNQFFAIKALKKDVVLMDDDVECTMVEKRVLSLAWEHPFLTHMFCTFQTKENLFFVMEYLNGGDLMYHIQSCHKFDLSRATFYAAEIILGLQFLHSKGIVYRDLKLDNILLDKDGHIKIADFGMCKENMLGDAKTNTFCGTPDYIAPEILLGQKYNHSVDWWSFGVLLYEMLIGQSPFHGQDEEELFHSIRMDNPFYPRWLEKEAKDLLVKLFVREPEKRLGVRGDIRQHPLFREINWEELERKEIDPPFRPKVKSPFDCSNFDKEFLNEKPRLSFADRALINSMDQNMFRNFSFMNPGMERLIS
UniProt P31751: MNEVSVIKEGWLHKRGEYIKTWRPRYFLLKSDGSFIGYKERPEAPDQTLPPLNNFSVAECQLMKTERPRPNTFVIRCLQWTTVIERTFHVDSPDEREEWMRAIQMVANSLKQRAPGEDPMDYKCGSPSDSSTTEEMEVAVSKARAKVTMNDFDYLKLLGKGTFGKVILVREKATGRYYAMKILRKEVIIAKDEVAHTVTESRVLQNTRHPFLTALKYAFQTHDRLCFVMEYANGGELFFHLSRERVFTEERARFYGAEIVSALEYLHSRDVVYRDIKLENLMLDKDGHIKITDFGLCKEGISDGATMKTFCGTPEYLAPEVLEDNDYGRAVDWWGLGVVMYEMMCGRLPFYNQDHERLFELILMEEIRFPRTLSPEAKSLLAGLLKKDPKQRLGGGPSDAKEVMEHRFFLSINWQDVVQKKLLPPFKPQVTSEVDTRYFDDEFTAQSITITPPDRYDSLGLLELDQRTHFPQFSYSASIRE
UniProt P48730: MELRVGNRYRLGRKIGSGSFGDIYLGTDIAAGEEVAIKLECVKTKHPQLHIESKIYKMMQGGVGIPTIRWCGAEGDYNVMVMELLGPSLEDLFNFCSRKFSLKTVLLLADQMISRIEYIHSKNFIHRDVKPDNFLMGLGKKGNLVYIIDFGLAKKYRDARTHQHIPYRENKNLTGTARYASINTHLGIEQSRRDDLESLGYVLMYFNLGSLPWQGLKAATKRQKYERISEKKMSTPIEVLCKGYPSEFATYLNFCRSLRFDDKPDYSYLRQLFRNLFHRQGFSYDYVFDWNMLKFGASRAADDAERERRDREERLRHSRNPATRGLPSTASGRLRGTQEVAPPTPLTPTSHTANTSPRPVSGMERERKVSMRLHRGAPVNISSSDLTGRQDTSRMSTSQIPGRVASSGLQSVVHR
UniProt Q06418, 41-890: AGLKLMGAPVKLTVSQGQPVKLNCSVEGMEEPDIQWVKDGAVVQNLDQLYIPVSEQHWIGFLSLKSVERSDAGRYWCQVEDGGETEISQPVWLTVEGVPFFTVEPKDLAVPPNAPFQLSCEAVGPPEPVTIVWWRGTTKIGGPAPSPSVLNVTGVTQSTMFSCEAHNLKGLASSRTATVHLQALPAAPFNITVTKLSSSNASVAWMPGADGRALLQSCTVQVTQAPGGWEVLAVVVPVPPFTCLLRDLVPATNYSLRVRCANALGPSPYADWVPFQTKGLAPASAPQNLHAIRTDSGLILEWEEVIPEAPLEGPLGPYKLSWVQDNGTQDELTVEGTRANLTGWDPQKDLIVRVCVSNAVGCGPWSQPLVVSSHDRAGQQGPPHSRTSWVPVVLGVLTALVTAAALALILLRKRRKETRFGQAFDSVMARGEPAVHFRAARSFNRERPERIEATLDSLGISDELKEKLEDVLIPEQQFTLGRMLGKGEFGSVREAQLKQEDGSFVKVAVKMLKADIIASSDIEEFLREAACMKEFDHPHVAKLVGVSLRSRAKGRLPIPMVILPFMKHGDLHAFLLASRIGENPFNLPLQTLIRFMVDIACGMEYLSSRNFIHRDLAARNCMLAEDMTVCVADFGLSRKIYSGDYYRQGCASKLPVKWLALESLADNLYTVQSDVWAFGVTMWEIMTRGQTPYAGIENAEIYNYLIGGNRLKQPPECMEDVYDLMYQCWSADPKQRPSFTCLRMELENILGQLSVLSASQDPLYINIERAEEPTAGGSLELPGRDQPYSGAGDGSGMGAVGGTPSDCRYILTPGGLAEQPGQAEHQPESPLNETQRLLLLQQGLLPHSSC
UniProt O43318, 1-303 limits assumed: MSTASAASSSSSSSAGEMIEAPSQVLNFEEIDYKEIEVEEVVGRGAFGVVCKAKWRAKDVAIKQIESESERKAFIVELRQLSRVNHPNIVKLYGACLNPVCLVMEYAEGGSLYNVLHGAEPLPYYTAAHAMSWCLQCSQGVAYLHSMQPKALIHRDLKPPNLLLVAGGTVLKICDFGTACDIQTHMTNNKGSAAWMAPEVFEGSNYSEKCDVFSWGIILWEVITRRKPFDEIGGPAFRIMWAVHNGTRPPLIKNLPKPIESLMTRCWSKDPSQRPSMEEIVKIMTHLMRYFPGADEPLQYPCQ
UniProt O43293: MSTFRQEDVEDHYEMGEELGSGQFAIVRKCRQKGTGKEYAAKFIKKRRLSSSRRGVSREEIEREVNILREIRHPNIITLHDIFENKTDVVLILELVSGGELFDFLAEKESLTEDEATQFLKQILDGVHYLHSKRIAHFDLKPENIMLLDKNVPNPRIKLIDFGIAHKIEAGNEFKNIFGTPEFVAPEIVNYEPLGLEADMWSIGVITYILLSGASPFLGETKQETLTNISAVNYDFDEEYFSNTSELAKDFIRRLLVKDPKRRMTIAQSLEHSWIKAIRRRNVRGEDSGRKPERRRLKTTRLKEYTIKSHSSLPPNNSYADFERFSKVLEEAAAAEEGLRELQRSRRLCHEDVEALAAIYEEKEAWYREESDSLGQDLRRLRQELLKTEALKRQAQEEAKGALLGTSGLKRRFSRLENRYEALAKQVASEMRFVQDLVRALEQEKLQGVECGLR
UniProt Q13131: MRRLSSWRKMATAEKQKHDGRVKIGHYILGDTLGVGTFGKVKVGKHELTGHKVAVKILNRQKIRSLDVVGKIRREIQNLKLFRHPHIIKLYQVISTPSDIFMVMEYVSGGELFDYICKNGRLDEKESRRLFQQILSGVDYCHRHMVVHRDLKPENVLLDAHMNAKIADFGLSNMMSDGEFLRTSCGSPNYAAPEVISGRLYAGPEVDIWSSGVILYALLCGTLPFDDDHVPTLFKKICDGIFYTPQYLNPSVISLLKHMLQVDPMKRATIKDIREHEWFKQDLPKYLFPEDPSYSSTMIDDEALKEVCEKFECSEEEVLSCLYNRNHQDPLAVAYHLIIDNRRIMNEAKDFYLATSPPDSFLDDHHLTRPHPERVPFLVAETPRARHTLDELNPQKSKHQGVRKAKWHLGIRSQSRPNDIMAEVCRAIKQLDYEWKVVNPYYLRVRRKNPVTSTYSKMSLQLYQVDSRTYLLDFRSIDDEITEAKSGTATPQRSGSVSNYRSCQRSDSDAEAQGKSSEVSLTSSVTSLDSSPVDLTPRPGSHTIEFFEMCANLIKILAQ
UniProt Q16566: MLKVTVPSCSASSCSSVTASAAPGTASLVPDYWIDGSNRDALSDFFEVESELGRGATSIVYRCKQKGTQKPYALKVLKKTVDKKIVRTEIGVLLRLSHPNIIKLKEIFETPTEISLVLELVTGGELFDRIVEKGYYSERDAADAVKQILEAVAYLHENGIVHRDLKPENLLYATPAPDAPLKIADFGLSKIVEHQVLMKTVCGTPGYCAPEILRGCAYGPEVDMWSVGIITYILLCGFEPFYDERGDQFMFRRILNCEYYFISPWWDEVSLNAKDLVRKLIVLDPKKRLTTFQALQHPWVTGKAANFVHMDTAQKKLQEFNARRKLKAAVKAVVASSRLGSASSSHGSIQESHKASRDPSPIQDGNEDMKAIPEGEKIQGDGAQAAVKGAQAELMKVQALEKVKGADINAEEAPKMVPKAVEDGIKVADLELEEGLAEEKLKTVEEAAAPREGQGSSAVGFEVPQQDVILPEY

Legend:
Assay in all cases: Kinase Profiling Assay
Format in all cases: biochemical
Conditions in all cases: peptide 100 μM
[1] = target: Rsk1(h) (Homo sapiens, UniProt Q15418)
Procedure, shortened: (§1)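 Activity remaining relative to an uninhibited control was determined by scintillation counting of labeled substrate bound to a negatively charged filter. Radiolabeled phosphate came from ATP; the substrate carried positive charge. Duplicate measurements, within a 266-kinase human panel.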

[2] = target: T1, IR(h), activated (Homo sapiens, UniProt P06213)
T1 construct: purchased Millipore
Procedure, shortened: as §1

[3] = target: T2, PRAK(h) (Homo sapiens, UniProt Q8IW41)
T2 sequence (Q8IW41 1-473): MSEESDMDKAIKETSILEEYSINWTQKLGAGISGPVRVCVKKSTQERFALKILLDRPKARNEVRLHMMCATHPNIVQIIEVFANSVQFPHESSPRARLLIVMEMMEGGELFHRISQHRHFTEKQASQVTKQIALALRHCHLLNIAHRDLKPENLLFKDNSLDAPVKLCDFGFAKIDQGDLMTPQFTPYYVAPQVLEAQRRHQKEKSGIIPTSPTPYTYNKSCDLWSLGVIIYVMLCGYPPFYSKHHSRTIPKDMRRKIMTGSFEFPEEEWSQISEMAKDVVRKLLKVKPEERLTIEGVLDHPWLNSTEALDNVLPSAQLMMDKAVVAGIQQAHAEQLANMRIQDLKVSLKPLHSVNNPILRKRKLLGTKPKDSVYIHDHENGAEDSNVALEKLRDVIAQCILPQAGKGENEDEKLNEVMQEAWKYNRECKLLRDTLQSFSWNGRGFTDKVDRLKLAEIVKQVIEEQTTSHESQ
Procedure, shortened: as §1

[4] = target: T3, HIPK1(h) (Homo sapiens, UniProt Q86Z02)
T3 construct: purchased Millipore
Procedure, shortened: as §1

[5] = target: T4, SAPK4(h) (Homo sapiens, UniProt O15264)
T4 construct: purchased Millipore
Procedure, shortened: as §1

[6] = target: Pim-1(h) (Homo sapiens, UniProt P11309)
Procedure, shortened: as §1

[7] = target: T5, Met(D1246N)(h) (Homo sapiens, UniProt P08581, D1228N)
T5 construct: purchased Millipore
Procedure, shortened: as §1

[8] = target: PKCθ(h) (Homo sapiens, UniProt Q04759)
Procedure, shortened: as §1

[9] = target: PKCβI(h) (Homo sapiens, UniProt P05771)
Procedure, shortened: as §1

[10] = target: Pim-3(h) (Homo sapiens, UniProt Q86V86)
Procedure, shortened: as §1

[11] = target: PKBβ(h) (Homo sapiens, UniProt P31751)
Procedure, shortened: as §1

[12] = target: Fgr(h) (Homo sapiens, UniProt P09769)
Procedure, shortened: as §1

[13] = target: Fes(h) (Homo sapiens, UniProt P07332)
Procedure, shortened: as §1

[14] = target: T6, SAPK3(h) (Homo sapiens, UniProt P53778)
T6 construct: purchased Millipore
Procedure, shortened: as §1

[15] = target: CK1δ(h) (Homo sapiens, UniProt P48730)
Procedure, shortened: as §1

[16] = target: Rse(h) (Homo sapiens, UniProt Q06418)
Procedure, shortened: as §1

[17] = target: T7, NEK2(h) (Homo sapiens, UniProt P51955)
T7 construct: purchased Millipore
Procedure, shortened: as §1

[18] = target: T8, Src(1-530)(h) (Homo sapiens, UniProt P12931)
T8 construct: Src(1-530)(h); purchased Millipore
Procedure, shortened: as §1

[19] = target: T9, TAK1(h) (Homo sapiens, UniProt O43318)
T9 construct: purchased Millipore
Procedure, shortened: as §1

[20] = target: T10, Syk(h) (Homo sapiens, UniProt P43405)
T10 construct: purchased Millipore
Procedure, shortened: as §1

[21] = target: ZIPK(h) (Homo sapiens, UniProt O43293)
Procedure, shortened: as §1

[22] = target: PKCβII(h) (Homo sapiens, UniProt P05771)
Procedure, shortened: as §1

[23] = target: AMPKα1(h) (Homo sapiens, UniProt Q13131)
Procedure, shortened: as §1

[24] = target: Ret(V804L)(h) (Homo sapiens, UniProt P07949, V804L)
Procedure, shortened: as §1

[25] = target: EphB3(h) (Homo sapiens, UniProt P54753)
Procedure, shortened: as §1

[26] = target: Arg(h) (Homo sapiens, UniProt P42684)
Procedure, shortened: as §1

[27] = target: DMPK(h) (Homo sapiens, UniProt Q09013)
Procedure, shortened: as §1

[28] = target: CaMKIV(h) (Homo sapiens, UniProt Q16566)
Procedure, shortened: as §1

With “YARAAARQARAKALNRQLGVA (Mammal) [MMI-0200]” the “% activity” value [1] was 102%, the “% activity” value [2] was 105% and the “% activity” value [3] was 115%. For the same compound, the “% activity” value [4] was 115%.
`CC(C)C[C@H](NC(=O)[C@H](C)NC(=O)[C@H](CCCCN)NC(=O)[C@H](C)NC(=O)[C@H](CCCNC(=N)N)NC(=O)[C@H](C)NC(=O)[C@H](CCC(N)=O)NC(=O)[C@H](CCCNC(=N)N)NC(=O)[C@H](C)NC(=O)[C@H](C)NC(=O)[C@H](C)NC(=O)[C@H](CCCNC(=N)N)NC(=O)[C@H](C)NC(=O)[C@@H](N)Cc1ccc(O)cc1)C(=O)N[C@@H](C)C(=O)N[C@@H](CCCNC(=N)N)C(=O)N[C@@H](CCC(N)=O)C(=O)N[C@@H](CC(C)C)C(=O)NCC(=O)N[C@H](C(=O)N[C@@H](C)C(=O)N[C@@H](C)C(=O)O)C(C)C` [MMI-0100] was tested, and the “% activity” value [5] was 98%, the “% activity” value [6] was 44% and the “% activity” value [7] was 114%. For the same compound, the “% activity” value [8] was 102%, the “% activity” value [9] was 88% and the “% activity” value [10] was 98%. The “% activity” value [11] was 284%, the “% activity” value [12] was 54% and the “% activity” value [13] was 44%. For the same compound, the “% activity” value [14] was 106%, the “% activity” value [15] was 115% and the “% activity” value [16] was 109%. For the same compound, the “% activity” value [17] was 102%, the “% activity” value [18] was 95% and the “% activity” value [19] was 116%. The “% activity” value [20] was 45%, the “% activity” value [21] was 80% and the “% activity” value [22] was 102%. For the same compound, the “% activity” value [23] was 107%, the “% activity” value [24] was 113% and the “% activity” value [25] was 109%. The “% activity” value [26] was 89%, the “% activity” value [27] was 60% and the “% activity” value [28] was 87%.
